Literature values as cited in article PMC3845828 (Clinical cancer research : an official journal of the …, 2012).

What was measured:
[1] = test system: tumor cells
[2] = administration of sRAGE; ref [11], [12]
[3] = test system: amyloid-β; details: administration of sRAGE; ref [13]

With “sRAGE: truncated form of RAGE; synthetic version of a naturally occurring secreted receptor form that sequesters RAGE ligands” as the substance, how does the “growth of tumor cells in animal studies” value ([1]; administration of sRAGE, ref [6]) read?
The value was “suppress the growth of tumor cells”.

What about the C6-glioma tumors ([1]; previously shown) of the same substance?
The C6-glioma tumors was “reduced C6-glioma tumors”.

And the “tumor growth and metastasis in a murine model of lung cancer” value ([1]; treatments with sRAGE, ref [8])?
Its value is “suppresses tumor growth and metastasis”.

What about the outcomes in diabetes [2] of the same substance?
The outcomes in diabetes was “improve outcomes in diabetes”.

And the “transport of amyloid-β across the blood-brain barrier” value [3]?
Its value is “block the transport of amyloid-β across the blood-brain barrier”.
